Test results as given in PMC6974774, “NanoBiT Complementation to Monitor Agonist-Induced Adenosine A1 Receptor Internalization” (Slas Discovery, 2019).

Amino acid sequences for entries named in this document (tags omitted).
UniProt P30542, whole entry M1L: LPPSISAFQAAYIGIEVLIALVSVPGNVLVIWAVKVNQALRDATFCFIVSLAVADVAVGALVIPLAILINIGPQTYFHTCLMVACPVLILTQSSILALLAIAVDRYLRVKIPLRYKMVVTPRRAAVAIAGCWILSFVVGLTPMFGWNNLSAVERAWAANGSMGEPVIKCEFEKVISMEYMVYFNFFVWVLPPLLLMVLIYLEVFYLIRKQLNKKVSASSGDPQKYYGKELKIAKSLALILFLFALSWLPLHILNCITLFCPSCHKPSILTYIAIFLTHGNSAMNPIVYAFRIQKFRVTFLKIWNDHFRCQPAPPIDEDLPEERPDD

Biological target: HiBiT–A1AR (human adenosine A1 receptor) (Homo sapiens, UniProt P30542, M1L)
Assay: NanoBiT internalization assay (loss of cell-surface HiBiT–A1AR luminescence)
Assay type: cell-based
Set-up: creating the full-length fusion protein HiBiT–A1AR; expressed in transfected cells
Description: HEK293 cells stably expressing HiBiT–A1AR were plated onto white 96-well plates (Greiner Bio-One, Monroe, NC) previously coated with 10 µg/mL poly-D-lysine. 100 µL DMEM containing cells in suspension (30,000 cells/well) was added to each well, and the plate incubated at 37 °C in a 5% CO2 atmosphere for 24 h. […] For end-point assays, cells were incubated at 37 °C for 2 h. Purified LgBiT was diluted in HBSS (10 nM final concentration) and added to each well in the presence of furimazine (1:400 final concentration). […] Luminescence was measured on the PHERAstar FS plate reader (BMG Labtech, Offenburg, Germany) using the LUM Plus module.
The potency of ligands that internalized HiBiT–A1AR was determined from fitting data to a one-site sigmoidal concentration–response curve defined by the following three-parameter logistic equation: […]

CCNC(=O)[C@H]1O[C@@H](n2cnc3c(N)ncnc32)[C@H](O)[C@@H]1O [NECA, 5′-N-ethylcarboxamidoadenosine]
agonist character in internalization assay (HEK293 HiBiT–A1AR, panel of A1 receptor agonists): full agonists
Emax (% 100 µM NECA) (HEK293 cells, 2 h incubation): 100 % 100 µM NECA
